Test results published in US20060019966A1, “Method for treating nervous system disorders and conditions” (Wyeth, priority 2004, published 2006).

Columns and labels:
hSERT transporter = hSERT transporter (UniProt P31652); assay: Serotonin reuptake inhibition at the serotonin transporter; format: biochemical, human; settings: in vitro, homogenized rat brain
hNET transporter = hNET transporter (UniProt Q9WTR4); assay: Norepinephrine reuptake inhibition at the norepinephrine transporter; format: biochemical, human; settings: in vitro, homogenized rat brain

**Q.** `Fc1ccc(C(OCCN2CCN(CCCc3ccccc3)CC2)c2ccc(F)cc2)cc1` [1-[2-[bis(4-fluorophenyl)methoxy]ethyl]-4-(3-phenylpropyl)piperazine] was tested. Which IC50 (hSERT transporter) did it give?
**A.** 170 nM

**Q.** What about the IC50 (hNET transporter) of the same molecule?
**A.** 440 nM
